Earlier results, collected in patent US10172953B2, “XTEN conjugate compositions and methods of making same” (Amunix Operating Inc., priority 2012, dated 2019).

Settings: reported or estimated half-life; cited from earlier work

Substance: PYY: human peptide YY polypeptide (UniProt No. P10082), includes PYY3-36 (SEQ ID NO: 544)
- half-life: less than 1 h

Substance: factor X: coagulation protein (UniProt No. P00742(2-488)), SEQ ID NO: 574
- half-life: 40 to 45 h
